Structures are written as SMILES. A value given as a limit tells only on which side of the number the result lay.

For one assay, the target named is recombinant HIV-1 protease (Human immunodeficiency virus type 1 group M subtype B, UniProt P04585). Nature of the assay: biochemical.
Conditions: not given
With `Nc1cccc(CN2C(=O)N(Cc3cccc(C(=O)O)c3)C(Cc3ccccc3)C(O)C(O)C2Cc2ccccc2)c1` (stereo not drawn), the IC50 (usually the concentration at which inhibition is half-maximal) stood at 18 nM.

`CCOP(=O)(CCCNC(=O)c1cccc(CN2C(=O)N(Cc3cccc(N)c3)C(Cc3ccccc3)C(O)C(O)C2Cc2ccccc2)c1)OCC` (stereo not drawn): the 50% inhibitory concentration (IC50) worked out at 2.3 nM. Consider `Nc1n[nH]c2ccc(CN3C(=O)N(CCCOCP(=O)(O)O)C(Cc4ccccc4)C(O)C(O)C3Cc3ccccc3)cc12` (stereo not drawn) [OCH2PO3H2], for which the IC50 is 59 nM.

The same assay, now with this note: Enzymatic assay Ki.
As for `CCOP(=O)(CCCNC(=O)c1cccc(CN2C(=O)N(Cc3cccc(N)c3)C(Cc3ccccc3)C(O)C(O)C2Cc2ccccc2)c1)OCC` (stereo not drawn), the Ki – broadly, a measure of affinity in units of concentration, obtained from inhibition or displacement – is less than 4 pM. For the molecule `CCCCN1C(=O)N(Cc2ccc3[nH]nc(N)c3c2)C(Cc2ccccc2)C(O)C(O)C1Cc1ccccc1` (stereo not drawn) [CH3 (DMP-851)], the Ki is 33 pM.

Staying with this assay, now noted: HIV-1 protease inhibition Ki.
On to `CCCCOC(=O)CNP(=O)(COc1ccc(CC(NC(=O)OC2COC3OCCC23)C(O)CN(CC(C)C)S(=O)(=O)c2ccc(OC)cc2)cc1)NCC(=O)OCCCC` (stereo not drawn) [Compound 16b], for which the inhibition constant (Ki) is 4.9 ± 1.8 pM.

Still in this assay, the particulars now being: Ki.
As to `COc1ccc(S(=O)(=O)N(CC(C)C)CC(O)C(Cc2ccc(CO)cc2)NC(=O)OC2COC3OCCC23)cc1` (stereo not drawn), the Ki is less than 10 pM.

Consider `COc1ccc(S(=O)(=O)N(CC(C)C)CC(O)C(Cc2ccc(OCc3ccccc3)cc2)NC(=O)OC2COC3OCCC23)cc1` (stereo not drawn), for which the inhibition constant (Ki) was less than 10 pM. For the molecule `COc1ccc(S(=O)(=O)N(CCN(C)C)CC(O)C(Cc2ccc(OCc3ccccc3)cc2)NC(=O)OC2COC3OCCC23)cc1` (stereo not drawn), the Ki was greater than 1000 pM. For the molecule `COc1ccc(S(=O)(=O)N(CC2CCN(C=O)CC2)CC(O)C(Cc2ccc(OCP(=O)(O)O)cc2)NC(=O)OC2COC3OCCC23)cc1` (stereo not drawn), the Ki lay in the range of 10 to 100 pM.

Turning to `CCOP(=O)(COc1ccc(CC(NC(=O)OC2COC3OCCC23)C(O)CN(CC2CCN(C=O)CC2)S(=O)(=O)c2ccc(OC)cc2)cc1)OCC` (stereo not drawn), the Ki was 10 to 100 pM. Still for that read-out and setting: the result for `COc1ccc(S(=O)(=O)N(CC2CCN(C=O)CC2)CC(O)C(Cc2ccc(OCP(=O)(OCc3ccccc3)OCc3ccccc3)cc2)NC(=O)OC2COC3OCCC23)cc1` (stereo not drawn) reads 10 to 100 pM. Take `COc1ccc(S(=O)(=O)N(Cc2ccccc2)CC(O)C(Cc2ccccc2)NC(=O)OC2COC3OCCC23)cc1` (stereo not drawn): the Ki fell in the range of 10 to 100 pM. `COc1ccc(S(=O)(=O)N(CC(O)C(Cc2ccccc2)NC(=O)OC2COC3OCCC23)CC(C)(C)CO)cc1` (stereo not drawn): the inhibition constant (Ki) was less than 10 pM. Turning to `Cc1cccc(C)c1OCC(=O)NC(Cc1ccc(OCP(=O)(OCc2ccccc2)OCc2ccccc2)cc1)C(O)CN(CC(C)C)S(=O)(=O)c1ccc(N)cc1` (stereo not drawn), the inhibition constant (Ki) lay within 100 to 1000 pM. In the case of `CC(C)CN(CC(O)C(Cc1ccc(OCP(=O)(O)O)cc1)NC(=O)OC1COC2OCCC12)S(=O)(=O)c1ccc(N)cc1` (stereo not drawn), the Ki fell in the range of 10 to 100 pM. For the molecule `CCOP(=O)(COc1ccc(CC(NC(=O)OC2COC3OCCC23)C(O)CN(CC(C)C)S(=O)(=O)c2ccc(N)cc2)cc1)OCC` (stereo not drawn), the inhibition constant Ki fell in the range of 10 to 100 pM. For `CCNc1ccc(S(=O)(=O)N(CC(C)C)CC(O)C(Cc2ccc(OCP(=O)(OCC)OCC)cc2)NC(=O)OC2COC3OCCC23)cc1` (stereo not drawn), the Ki lay within 10 to 100 pM. `CC(C)CN(CC(O)C(Cc1ccc(OCP(=O)(OCc2ccccc2)OCc2ccccc2)cc1)NC(=O)OC1COC2OCCC12)S(=O)(=O)c1ccc(N)cc1` (stereo not drawn): the Ki lay in the range of 10 to 100 pM. Turning to `CC(C)CN(CC(O)C(Cc1ccc(OCP(=O)(O)O)cc1)NC(=O)OC1COC2OCCC12)S(=O)(=O)c1cccc(N)c1` (stereo not drawn), the Ki is 10 to 100 pM.

For the molecule `CCOP(=O)(COc1ccc(CC(NC(=O)OC2COC3OCCC23)C(O)CN(CC(C)C)S(=O)(=O)c2cccc(N)c2)cc1)OCC` (stereo not drawn), the inhibition constant Ki fell in the range of 10 to 100 pM. Same read-out and setting: as for `CC(C)CN(CC(O)C(Cc1ccc(OCP(=O)(OCc2ccccc2)OCc2ccccc2)cc1)NC(=O)OC1COC2OCCC12)S(=O)(=O)c1cccc(N)c1` (stereo not drawn), the figure is 10 to 100 pM. The same measure, in the same setting: as for `CC(C)CN(CC(O)C(Cc1ccc(OCP(=O)(O)O)cc1)NC(=O)OC1COC2OCCC12)S(=O)(=O)c1ccccc1` (stereo not drawn), the figure is 10 to 100 pM.

For the molecule `CC(C)CN(CC(O)C(Cc1ccc(OCP(=O)(OCc2ccccc2)OCc2ccccc2)cc1)NC(=O)OC1COC2OCCC12)S(=O)(=O)c1ccccc1` (stereo not drawn), the Ki was 10 to 100 pM.

As to `CC(C)CN(CC(O)C(Cc1ccc(OCP(=O)(O)O)cc1)NC(=O)OC1COC2OCCC12)S(=O)(=O)c1ccc(F)cc1` (stereo not drawn), the inhibitory constant (Ki) was 10 to 100 pM. Turning to `CC(C)CN(CC(O)C(Cc1ccc(OCP(=O)(OCc2ccccc2)OCc2ccccc2)cc1)NC(=O)OC1COC2OCCC12)S(=O)(=O)c1ccc(F)cc1` (stereo not drawn), the Ki was 10 to 100 pM. Take `CC(C)CN(CC(O)C(Cc1ccc(OCP(=O)(O)O)cc1)NC(=O)OC1COC2OCCC12)S(=O)(=O)c1ccc(C(F)(F)F)cc1` (stereo not drawn): the Ki was less than 10 pM. On to `CC(C)CN(CC(O)C(Cc1ccc(OCP(=O)(O)O)cc1)NC(=O)OC1COC2OCCC12)S(=O)(=O)c1ccc(OC(F)(F)F)cc1` (stereo not drawn), for which the inhibition constant Ki was in the range of 10 to 100 pM. The same measure, in the same setting: the result for `CC(C)CN(CC(O)C(Cc1ccc(OCP(=O)(OCc2ccccc2)OCc2ccccc2)cc1)NC(=O)OC1COC2OCCC12)S(=O)(=O)c1ccc(OC(F)(F)F)cc1` (stereo not drawn) reads 10 to 100 pM; that for `CC(C)CN(CC(O)C(Cc1ccc(OCP(=O)(O)O)cc1)NC(=O)OC1COC2OCCC12)S(=O)(=O)c1ccc(CO)cc1` (stereo not drawn), 10 to 100 pM. The same measure, in the same setting: as for `CC(C)CN(CC(O)C(Cc1ccccc1)NC(=O)OC1COC2OCCC12)S(=O)(=O)c1ccc(O)cc1` (stereo not drawn), the figure is less than 10 pM; as for `CC(C)CN(CC(O)C(Cc1ccccc1)NC(=O)OC1COC2OCCC12)S(=O)(=O)c1ccc(OCP(=O)(O)O)cc1` (stereo not drawn), less than 10 pM; as for `CCOP(=O)(COc1ccc(S(=O)(=O)N(CC(C)C)CC(O)C(Cc2ccccc2)NC(=O)OC2COC3OCCC23)cc1)OCC` (stereo not drawn), 10 to 100 pM. Consider `CC(C)CN(CC(O)C(Cc1ccccc1)NC(=O)OC1COC2OCCC12)S(=O)(=O)c1cccc(O)c1` (stereo not drawn), for which the Ki is less than 10 pM. As for `COc1cccc(S(=O)(=O)N(CC(C)C)CC(O)C(Cc2ccccc2)NC(=O)OC2COC3OCCC23)c1` (stereo not drawn), the Ki is less than 10 pM.

Take `CC(C)CN(CC(O)C(Cc1ccccc1)NC(=O)OC1COC2OCCC12)S(=O)(=O)c1cccc(OCP(=O)(O)O)c1` (stereo not drawn): the inhibitory constant (Ki) was in the range of 10 to 100 pM. With `CCOP(=O)(COc1cccc(S(=O)(=O)N(CC(C)C)CC(O)C(Cc2ccccc2)NC(=O)OC2COC3OCCC23)c1)OCC` (stereo not drawn), the Ki is less than 10 pM. Regarding `CC(C)CN(CC(O)C(Cc1ccccc1)NC(=O)OC1COC2OCCC12)S(=O)(=O)c1cccc(OCP(=O)(OCc2ccccc2)OCc2ccccc2)c1` (stereo not drawn), the Ki is 10 to 100 pM. Still for that read-out and setting: the result for `COc1ccc(S(=O)(=O)N(CC(C)C)CC(O)C(Cc2ccccc2)NC(=O)OC2COC3OCCC23)cc1O` (stereo not drawn) reads less than 10 pM. `COc1ccc(S(=O)(=O)N(CC(C)C)CC(O)C(Cc2ccccc2)NC(=O)OC2COC3OCCC23)cc1OCP(=O)(O)O` (stereo not drawn): the inhibitory constant (Ki) was less than 10 pM. Regarding `CC(C)CN(CC(O)C(Cc1ccc(O)cc1)NC(=O)OC1COC2OCCC12)S(=O)(=O)c1cccc(N)c1` (stereo not drawn) [OH, m-NH2], the Ki is 10 to 100 pM. For the molecule `CC(C)CN(CC(O)C(Cc1ccc(O)cc1)NC(=O)OC1COC2OCCC12)S(=O)(=O)c1ccc(N)cc1` (stereo not drawn) [OH, p-NH2], the Ki lay in the range of 10 to 100 pM.

The same assay, now with this note: Ki (pM).
Consider `CCOP(=O)(CN1CC=C(CC(NC(=O)OC2COC3OCCC23)C(O)CN(CC(C)C)S(=O)(=O)c2ccc(OC)cc2)CC1)OCC` (stereo not drawn), for which the Ki was in the range of 10 to 100 pM. On the same count and under the same terms, the result for `COc1ccc(S(=O)(=O)N(CC(C)C)CC(O)C(CC2=CCN(CCP(=O)(OCc3ccccc3)OCc3ccccc3)CC2)NC(=O)OC2COC3OCCC23)cc1` (stereo not drawn) reads 10 to 100 pM; that for `CCOP(=O)(Cc1ccc(NCC(NC(=O)OC2COC3OCCC23)C(O)CN(CC(C)C)S(=O)(=O)c2ccc(OC)cc2)cc1)OCC` (stereo not drawn), 10 to 100 pM. In the case of `COc1ccc(S(=O)(=O)N(CC(C)C)CC(O)C(CNc2ccc(CP(=O)(OCc3ccccc3)OCc3ccccc3)cc2)NC(=O)OC2COC3OCCC23)cc1` (stereo not drawn), the Ki fell in the range of 10 to 100 pM. Consider `CCOC(=O)C(C)NP(=O)(Cc1ccc(NCC(NC(=O)OC2COC3OCCC23)C(O)CN(CC(C)C)S(=O)(=O)c2ccc(OC)cc2)cc1)NC(C)C(=O)OCC` (stereo not drawn), for which the Ki is 10 to 100 pM. Consider `CCOP(=O)(Cc1ccc(N(C)CC(NC(=O)OC2COC3OCCC23)C(O)CN(CC(C)C)S(=O)(=O)c2ccc(OC)cc2)cc1)OCC` (stereo not drawn), for which the Ki fell in the range of 10 to 100 pM. Take `COc1ccc(S(=O)(=O)N(CC(C)C)CC(O)C(CNCc2ccc(P(=O)(O)O)cc2)NC(=O)OC2COC3OCCC23)cc1` (stereo not drawn): the Ki is greater than 1000 pM. Turning to `CCOP(=O)(OCC)c1ccc(CN(C)CC(NC(=O)OC2COC3OCCC23)C(O)CN(CC(C)C)S(=O)(=O)c2ccc(OC)cc2)cc1` (stereo not drawn), the inhibitory constant (Ki) was in the range of 100 to 1000 pM. For `COc1ccc(S(=O)(=O)N(CC(C)C)CC(O)C(CN(C)Cc2ccc(P(=O)(O)O)cc2)NC(=O)OC2COC3OCCC23)cc1` (stereo not drawn), the inhibitory constant (Ki) was greater than 1000 pM. Same read-out and setting: as for `CCOP(=O)(Cc1ccc2c(c1)CCN(CC(NC(=O)OC1COC3OCCC13)C(O)CN(CC(C)C)S(=O)(=O)c1ccc(OC)cc1)C2)OCC` (stereo not drawn), the figure is 10 to 100 pM. Still for that read-out and setting: as for `CCOP(=O)(CNc1ccc(CC(NC(=O)OC2COC3OCCC23)C(O)CN(CC(C)C)S(=O)(=O)c2ccc(OC)cc2)cc1)OCC` (stereo not drawn), the figure is less than 10 pM; as for `COc1ccc(S(=O)(=O)N(CC(C)C)CC(O)C(Cc2ccc(OCP(=O)(OCc3ccccc3)OCc3ccccc3)cc2)NC(=O)OC2COC3OCCC23)cc1` (stereo not drawn) [drawing 651 R1=OBn R2=OBn], 10 to 100 pM; as for `CCOP(=O)(OCC)c1ccc(CC(NC(=O)OC2COC3OCCC23)C(O)CN(CC(C)C)S(=O)(=O)c2ccc(OC)cc2)cc1` (stereo not drawn) [drawing 653 R1=OEt R2=OEt], less than 10 pM.

`COc1ccc(S(=O)(=O)N(CC(C)C)CC(O)C(Cc2ccc(P(=O)(O)O)cc2)NC(=O)OC2COC3OCCC23)cc1` (stereo not drawn) [drawing 653 R1=OH R2=OH]: the Ki was 10 to 100 pM.

Staying with this assay, now noted: read-out: Ki.
Take `COc1ccc(S(=O)(=O)N(CC(C)C)CC(O)C(Cc2ccc(C)cc2)NC(=O)OC2COC3OCCC23)cc1` (stereo not drawn): the Ki is 10 to 100 pM. The same measure, in the same setting: the result for `COc1ccc(S(=O)(=O)N(C[C@@H](O)[C@H](Cc2ccccc2)NC(=O)O[C@H]2CO[C@H]3OCC[C@H]32)CC(C)(C)COCP(=O)(O)O)cc1` reads 10 to 100 pM; that for `CCOC(=O)C(CC)NP(=O)(COc1ccc(C[C@H](NC(=O)O[C@H]2CO[C@H]3OCC[C@H]32)[C@H](O)CN(CC(C)C)S(=O)(=O)c2ccc(OC)cc2)cc1)NC(CC)C(=O)OCC` (stereo partly drawn) [drawing 655 R1=Aba-Et R2=Aba-Et], less than 10 pM. For the molecule `CCOC(=O)COP(=O)(COc1ccc(C[C@H](NC(=O)O[C@H]2CO[C@H]3OCC[C@H]32)[C@H](O)CN(CC(C)C)S(=O)(=O)c2ccc(OC)cc2)cc1)OCC(=O)OCC` [drawing 656 R1=Glc-Et R2=Glc-Et], the Ki is less than 10 pM.

For the origin of these results see patent publication US20060115815A1 (priority 2002, published 2006).
